{"source": "paper PMC12715805", "about": "“Screening apelin analogues and a small molecule agonist as effective cardiovascular therapeutics against reperfusion injury” (RSC Medicinal Chemistry, 2025)", "assay_type_in_all_cases": "cell-based", "key": {"apelinR / β-arrestin2": {"molecular_target": "T1, apelinR / β-arrestin2 (Homo sapiens, UniProt P35414)", "T1 sequence (P35414 1-380)": "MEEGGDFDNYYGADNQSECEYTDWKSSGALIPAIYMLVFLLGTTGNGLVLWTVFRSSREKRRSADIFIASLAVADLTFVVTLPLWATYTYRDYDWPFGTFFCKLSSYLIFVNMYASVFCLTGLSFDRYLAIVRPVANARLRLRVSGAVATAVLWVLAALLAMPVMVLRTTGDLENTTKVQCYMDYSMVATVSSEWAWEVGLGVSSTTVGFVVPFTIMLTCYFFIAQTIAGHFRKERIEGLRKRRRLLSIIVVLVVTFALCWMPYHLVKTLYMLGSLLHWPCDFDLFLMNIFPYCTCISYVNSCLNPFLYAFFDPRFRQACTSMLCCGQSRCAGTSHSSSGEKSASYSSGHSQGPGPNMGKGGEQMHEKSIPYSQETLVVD", "experiment": "ebBRET β-arrestin2 recruitment", "details": "HEK293 cells transfected with apelinR, β-arrestin2-RlucII, rGFP-CAAX; 10 min at 37 °C; mean ± SEM of 5 to 6 independent experiments"}, "apelinR / β-arrestin1": {"molecular_target": "T2, apelinR / β-arrestin1 (Homo sapiens, UniProt P35414)", "T2 sequence (P35414 1-380)": "T1 sequence (P35414 1-380)", "experiment": "ebBRET β-arrestin1 recruitment", "details": "HEK293 cells transfected with apelinR, β-arrestin1-RlucII, rGFP-CAAX; 10 min at 37 °C; mean ± SEM of 5 to 6 independent experiments"}, "apelinR / human Gαi2": {"molecular_target": "T3, apelinR / human Gαi2 (Homo sapiens, UniProt P35414)", "T3 sequence (P35414 1-380)": "T1 sequence (P35414 1-380)", "experiment": "ebBRET Gαi2 activation", "details": "HEK293 cells transfected with apelinR, human Gαi2, Rap1GAP-RlucII, rGFP-CAAX; 10 min at 37 °C; mean ± SEM of 5 to 6 independent experiments"}}, "data": [{"smiles": "COc1cccc(OC)c1-n1c(NS(=O)(=O)[C@@H](C)[C@H](C)c2ncc(C)cn2)nnc1-c1cncc(C)c1", "note": "[AMG-986]", "values": [{"measurement": "β-arr2 recruitment log EC50", "setting": "apelinR / β-arrestin2", "value": "9.00 ± 0.03"}, {"measurement": "β-arr1 recruitment log EC50", "setting": "apelinR / β-arrestin1", "value": "8.96 ± 0.04"}, {"measurement": "Gαi2 activation log EC50", "setting": "apelinR / human Gαi2", "value": "10.67 ± 0.04"}]}]}
